Laboratory results taken from US20090318402A1, “RUTHENIUM (II) COMPOUNDS” (The University Court of the University of Edinburg, priority 2006, published 2009).

Columns and labels:
[1] = Aqueous solution chemistry followed by 1H NMR (hydrolysis, arene loss); format: physicochemical; settings: for speciation: arene loss / speciation: hydrolysis / speciation: intact cation: after 24 h; for half life of decomposition of the intact cation: pseudo first order
Experimental: NMR-Spectroscopy: All ^1H NMR experiments for characterization of synthesized compounds were recorded on either a Bruker DMX 500 MHz spectrometer equipped with TBI [^1H, ^13C, ^15N] probe-head, equipped with z-field gradients or a Bruker DPX 360 MHz spectrometer. The proton signals were calibrated against the residual solvent peak, δ 7.27 (chloroform), 2.07 (acetone) and 2.52 (DMSO). The 2D ^1H-TOCSY and 2D ^1H COSY experiments for characterization were run on a Bruker DMX 500 MHz spectrometer. 2D-^1H ROESY experiment for characterization was recorded on a Bruker AVA […] spectrometer equipped with a with a TXI [^1H, ^13C, ^15N] probe-head, equipped with z-field gradients. All pH titration experiments were recorded on a Bruker AVA 600 MHz spectrometer where dioxan was added as an internal reference (δ 3.75, in 100% D2O). The water was suppressed using a 1D Double Pulse Field Gradient Spin Echo (DPFGSE) experiment. The aqueous solution behaviour was recorded on a Bruker bio 600 MHz spectrometer equipped with a cryoprobe and the water was suppressed using a 1D Double Pulse Field Gradient Spin Echo (DPFGSE) experiment. The chemical shifts were measured relative to dioxin (internal reference δ 3.75, in 90% H2O/10% D2O). All spectra were recorded using 5 mm quartz tubes at 298 K unless stated otherwise. All NMR data were processed using Xwin-NMR (Version 2.0 Bruker UK Ltd).
The complex was dissolved in H2O/D2O, the pH was taken, and NMR spectra were recorded at uniform time intervals at a fixed temperature using a multi-zg kinetic experiment program. After acquisition, Electrospray Mass Spectrometry was performed on a portion of the NMR solution.
The solution chemistry was followed by ^1H NMR unless stated otherwise.

[2] = Solution chemistry in phosphate buffer mimicking cell test conditions (NMR, ESI-MS); format: physicochemical; settings: 100 μM, 10 mM phosphate buffer, 95% D2O, 5% MeOD, 310 K, 24 h; pH* 7.35 (8), 7.40 (10), 7.31 (13), 7.38 (21)
Experimental: Solutions of four ruthenium complexes (8, 10, 13 and 21) in MeOD were diluted down in 10 mM phosphate buffer/D2O to give a final concentration of 100 μM ruthenium (95% D2O, 5% MeOD) and NMR spectra were recorded at 310 K initially (time ca. 15 minutes) and after 24 h. The pH* of the samples was 7.35 (8), 7.40 (10), 7.31 (13) and 7.38 (21), The samples were kept in the water bath at 310 K between acquisitions. After 24 hour, ESI-MS was performed on the samples. These conditions were chosen to mimic pH, concentration, exposure time and temperature for the biological cell tests.

[3] = 50 μM, 95% H2O, 5% MeOH, pH 2.25
[4] = saturated solution, 90% H2O/10% D2O, pH=ca.5.8, 25° C., after 24 hours
[5] = saturated solution, 90% H2O/10% D2O, pH=ca. 4.5, 25° C., after 24 hours
[6] = 100 μM, 95% D2O, 5% MeOD, pH=7, 37° C., over 24 hours
[7] = 90% H2O/10% D2O, ca. 100 μM, initial pH 5.46, 310 K
[8] = saturated solution, 90% H2O/10% D2O, 37° C. over 24 hours
[9] = 100 μM, 99.5% D2O, 0.5% DMSO, 115 mM NaCl, 37° C., after 24 hours
[10] = 90% H2O/10% D2O, ca. 100 μM, initial pH 6.42, 310 K
[11] = 100 μM, 90% H2O/10% D2O, pH=ca 5.8, 25° C., after 24 hours
[12] = 100 μM, 90% H2O/10% D2O, pH=ca 5.8, 37° C., after 24 hours

“[Ru(THN)(4-phenol-azo pyridine)Cl]PF6 [Compound 19]” showed a hydrolyzed species [1, 4] of 13% and an intact chloride species [1, 4] of 87%.

With “[Ru(benzene)(3(5)-(4-dimethylaminophenylazo)pyrazole)Cl]PF6 [Compound 17]” the hydrolysed [1, 5] was 40%, the intact chloride complex [1, 5] was “about 60%” and the “intact chloride complex remaining” value ([1]; saturated solution, 90% H2O/10% D2O, pH=ca. 4.5, 25° C., initially (time=45 mins)) was “ca. 77%”.

For “[Ru(bip)(2-phenyl-azo pyridine)I]PF6 [Compound 7]”, the hydrolysis [1, 6] was “No hydrolysis occurred” and the “loss of the arene from the complex” value [1, 6] was “about 5%”.

In the case of “[Ru(biphenyl)(4-phenol-azo pyridine)Cl]PF6 [Compound 12]”, the “speciation: arene loss” value [1, 7] is reported as 64%, the “speciation: hydrolysis” value [1, 7] is reported as 5% and the “speciation: intact cation” value [1, 7] is reported as 31%. The “half life of decomposition of the intact cation” value (from here on “half life”) [1, 7] was 13.05 h.

With “[Ru(biphenyl)(4-phenol-azo pyridine)I]PF6 [Compound 13]” the “change of complex in solution” value [1, 8] was “No change occurred”, the hydrolysis [2] was “no hydrolysis had occurred” and the “half live for hydrolysis” value [3] was 2.14 h.

For “[Ru(biphenyl)(Azpy-NMe2)Cl]PF6 [Compound 9]”, the arene loss [1, 9] was “ca. 40%”, the intact chloro complex [1, 9] was “about 50%” and the “speciation: arene loss” value [1, 10] was 67%. For the same substance, the “speciation: hydrolysis” value [1, 10] was 9%, the “speciation: intact cation” value [1, 10] was 24% and the “half life” value [1, 10] was 20.27 h. The “changes in the spectrum over time” value ([1]; saturated solution (filtered) in 100% D2O, 25° C. over 25 hours) was “No changes occurred”.

In the case of “[Ru(biphenyl)(Azpy-NMe2)I]PF6 [Compound 10]”, the “change of complex in solution” value [1, 8] is reported as “No change occurred” and the hydrolysis [2] is reported as “no hydrolysis had occurred”.

With “[Ru(p-cymene)(4-phenol-azo pyridine)Cl]PF6 [Compound 11]” the “complex after arene loss” value [1, 11] was 20%, the hydrolysed product [1, 11] was 10% and the initial chloro form [1, 11] was 69%. The hydrolysed [1, 12] was 31%, the initial chloro complex [1, 12] was 32% and the minus arene [1, 12] was 36%. For the same substance, the “half life” value ([1]; 100 μM, 90% H2O/10% D2O, pH=ca 5.8, 310 K) was 21.03 h.

For “[Ru(p-cymene)(4-phenol-azo pyridine)I]PF6 [Compound 21]”, the “change of complex in solution” value ([1]; 100 μM, 90% H2O/10% D2O, pH=ca. 6.5, 37° C. over 24 hours) was “No change occurred” and the hydrolysis [2] was “no hydrolysis had occurred”.
